{
  "source": "patent US20240197719A1",
  "about": "(priority 2018, published 2024)",
  "origin": "cited, not measured here",
  "settings": "very high intravenous doses (up to 24 mg), individuals who are not opioid dependent; cited from earlier work",
  "data": [
    {"smiles": "C=C1CC[C@@]2(O)[C@H]3Cc4ccc(O)c5c4[C@@]2(CCN3CC2CC2)[C@H]1O5", "note": "[Nalmefene, 17-cyclopropylmethyl-4,5α-epoxy-6-methylenemorphinan-3,14-diol]", "values": [
      {"measurement": "safety and tolerability", "value": "safe and well tolerated"}
    ]}
  ]
}
